{"source": "ChEMBL document CHEMBL2311517", "about": "“Novel route to chaetomellic acid A and analogues: serendipitous discovery of a more competent FTase inhibitor” (Bioorg Med Chem, 2013)", "system": "Saccharomyces cerevisiae", "assay": "Ratio of chaetomellic acid A IC50 to compound IC50 for yeast farnesyltransferase using dansyl-GCVIA as substrate preincubated for 5 mins measured over 300 secs by continuous fluorescence assay", "data": [{"compound": "CCCCSCCCCCCCCC/C(C(=O)O)=C(\\C)C(=O)O", "values": [{"measurement": "Ratio IC50", "result": 5}]}]}
